Measurements taken from ChEMBL document CHEMBL4020821, “Targeting Acidic Mammalian chitinase Is Effective in Animal Model of Asthma” (J Med Chem, 2018).

By UniProt entry, the sequences of proteins in these tests, tags left out. Where a name states a change or a piece, a line headed by the entry shows the natural chain unless it says otherwise.
UniProt Q91XA9: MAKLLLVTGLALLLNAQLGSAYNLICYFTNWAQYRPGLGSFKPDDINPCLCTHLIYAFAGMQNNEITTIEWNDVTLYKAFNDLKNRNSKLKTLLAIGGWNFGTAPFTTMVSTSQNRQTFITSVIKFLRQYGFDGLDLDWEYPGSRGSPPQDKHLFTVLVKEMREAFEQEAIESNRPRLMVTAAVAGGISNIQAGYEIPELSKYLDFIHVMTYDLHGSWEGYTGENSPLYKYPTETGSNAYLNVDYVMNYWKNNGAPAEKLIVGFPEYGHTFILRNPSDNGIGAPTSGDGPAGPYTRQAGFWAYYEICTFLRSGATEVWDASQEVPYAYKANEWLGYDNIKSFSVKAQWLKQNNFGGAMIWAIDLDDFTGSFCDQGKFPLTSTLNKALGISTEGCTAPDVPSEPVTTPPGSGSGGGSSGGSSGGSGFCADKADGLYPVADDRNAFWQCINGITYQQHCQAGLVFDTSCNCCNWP

Target: Acidic mammalian chitinase (Mus musculus, UniProt Q91XA9)
Assay: Inhibition of mouse recombinant full length C-terminal His-tagged acidic mammalian chitinase expressed in CHO-K1 cells using 4-methylumbelliferyl-beta-D-N,N'-diacetylchitobioside hydrate as substrate after 60 mins by fluorescence assay

SMILES: CN(CCc1ccc(Cl)cc1Cl)C1CCN(c2nc(N)n[nH]2)CC1
- IC50: 333 nM
